Test system: SK-BR-3 cells
Assay: antiproliferative activity of empty immunoliposomes, monolayer culture, crystal violet
Assay type: cell-based
Conditions: continuous treatment for 4 days

For “rhuMAbHER2-Fab′: Monovalent Fab′ fragment of humanized anti-HER2 antibody rhuMAbHER2, expressed in E. coli”, the “effect on cell growth” value was “only modest growth inhibition”.
